Values of other authors, collected in article PMC8546421, “Molecular modelling of the FOXO4-TP53 interaction to design senolytic peptides for the elimination of senescent cancer cells” (EBioMedicine, 2021).
Like-named read-outs stand apart in the source and are kept apart here.

Chains of the proteins cited; added tags and fusions are not shown. Residues count along the entry.
UniProt P98177, 464-505: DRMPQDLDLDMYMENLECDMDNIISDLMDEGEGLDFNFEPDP
UniProt P98177, 86-206: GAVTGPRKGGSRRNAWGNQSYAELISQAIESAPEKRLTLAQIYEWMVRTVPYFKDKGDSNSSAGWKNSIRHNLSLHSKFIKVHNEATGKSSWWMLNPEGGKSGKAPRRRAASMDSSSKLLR

Tests used:
TP53 DBD (Homo sapiens) [1] = molecular target: TP53 DBD (Homo sapiens) (UniProt P04637)
TP53 DBD (Homo sapiens) [2] = molecular target: TP53 DBD (Homo sapiens) (UniProt P04637); remark: listed apart in the source

Kd (TP53 DBD (Homo sapiens) [1])	Kd (TP53 DBD (Homo sapiens) [2])	Substance
19 µM	–	FOXO4 CR3 (from UniProt P98177)
–	1000 µM	FOXO4 FH (from UniProt P98177)
